Laboratory results reported in patent US20060234327A1, “Methods for identifying enzyme inhibitors and protein kinases” (priority 2003, published 2006).

Target: T1, ALK5 (Homo sapiens, UniProt P36897)
T1 construct: recombinantly expressed and purified kinase domain of the transforming growth factor (TGF)-β type I receptor; made in house; host or cells: baculovirus expression system
T1 sequence (P36897 205-495 limits assumed): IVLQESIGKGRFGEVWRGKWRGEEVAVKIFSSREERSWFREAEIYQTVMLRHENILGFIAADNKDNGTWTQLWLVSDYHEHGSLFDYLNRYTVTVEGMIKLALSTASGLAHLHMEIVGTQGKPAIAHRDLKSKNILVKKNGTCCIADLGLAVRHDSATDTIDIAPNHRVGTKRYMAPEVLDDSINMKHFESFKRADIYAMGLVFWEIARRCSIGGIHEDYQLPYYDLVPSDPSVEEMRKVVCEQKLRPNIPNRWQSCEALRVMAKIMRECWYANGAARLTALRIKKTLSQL
Assay: Biotin-FSBA binding and competition detected by Western blot (avidin-HRP)
Details: biotin-FSBA 20 μM

## CN[C@@H]1C[C@H]2O[C@@](C)([C@@H]1OC)n1c3ccccc3c3c4c(c5c6ccccc6n2c5c31)C(=O)NC4 [staurosporine]
  Staurosporine concentration at which biotin-FSBA/ALK5 bands were no longer visible: ≥ 5.0 µM
